# Results published in US8497349B2, “Use of multivalent synthetic ligands of surface nucleolin for treating cancer or inflammation” (Centre National de la Recherche Scientifique (CNRS), priority 2006, dated 2013).
# Protein sequences, listed by entry. Tags and fused reporters are not part of them.
# UniProt P19338, whole entry: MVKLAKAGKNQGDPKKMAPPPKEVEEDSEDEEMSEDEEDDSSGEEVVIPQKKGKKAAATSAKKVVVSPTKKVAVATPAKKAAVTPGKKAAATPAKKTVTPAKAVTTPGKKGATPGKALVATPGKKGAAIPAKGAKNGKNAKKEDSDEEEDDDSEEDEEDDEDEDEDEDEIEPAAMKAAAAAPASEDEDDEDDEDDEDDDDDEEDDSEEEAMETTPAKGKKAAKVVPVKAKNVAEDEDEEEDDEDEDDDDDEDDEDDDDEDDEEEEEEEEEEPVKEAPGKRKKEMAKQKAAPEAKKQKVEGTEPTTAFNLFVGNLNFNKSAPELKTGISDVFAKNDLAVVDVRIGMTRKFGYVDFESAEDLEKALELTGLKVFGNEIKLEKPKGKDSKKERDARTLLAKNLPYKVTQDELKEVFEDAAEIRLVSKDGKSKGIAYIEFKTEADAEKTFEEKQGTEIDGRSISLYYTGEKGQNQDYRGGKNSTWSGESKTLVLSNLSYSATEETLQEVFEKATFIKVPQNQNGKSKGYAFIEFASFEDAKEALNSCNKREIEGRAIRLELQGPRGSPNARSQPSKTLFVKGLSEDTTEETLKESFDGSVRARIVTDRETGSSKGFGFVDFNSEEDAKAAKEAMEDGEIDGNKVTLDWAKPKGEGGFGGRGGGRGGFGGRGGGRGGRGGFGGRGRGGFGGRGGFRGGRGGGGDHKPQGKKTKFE
# Key:
# Format in all cases: cell-based
# [1] = test system: NIH-3T3 cells
# Protocol: FIG. 3. Effect of A. anti-nucleolin (anti Nu), B. isotypical IgG, C. peptide F3, and D. HB-19 on the proliferation of NIH-3T3 cells stimulated by HARP. Quiescent NIH-3T3 cells are stimulated or not by 4 nM of HARP in the presence or not of HB19 at the concentrations indicated. After 24 hours of incubation, cell proliferation was determined by measuring the incorporation of tritiated thymidine. The results are given as a percentage with respect to the control stimulated by HARP (100%). MSD (threshold), (**p<0.01 and ***p<0.001).
# FIG. 4. Effect of pretreatment of NIH-3T3 cells with HB19 for one hour on proliferation induced by HARP. NIH-3T3 cells were treated with HB19 for one hour then washed and stimulated or not by 3.6 nM of HARP. After 24 hours of incubation, cell proliferation was determined by measuring the incorporation of tritiated thymidine. The results are given as a percentage with respect to the control stimulated by HARP (100%). MSD (threshold), (**p<0.01 and ***p<0.001).
# FIG. 12. Effect of HB-19 and Nucant 01 on the growth of NIH-3T3 cells stimulated by HARP. Quiescent NIH-3T3 cells were stimulated or not by 4 nM of HARP in the presence of HB19 or Nucant 01 at the concentrations indicated. After 24 hours of incubation, cell proliferation was determined by measuring the incorporation of tritiated thymidine. The results (mean of 3 points) are given as the percentage of cell proliferation with respect to the control stimulated by HARP in the absence of HB19 and Nucant 01 (100% cell proliferation).
# FIG. 13. Effect of HB-19, Nucant 2 and Nucant 3 on the growth of NIH-3T3 cells stimulated by HARP. Quiescent NIH-3T3 cells were stimulated or not by 4 nM of HARP in the presence of HB19, Nucant 2 or Nucant 3 at the concentrations indicated (0.1, 0.25 and 0.5>M). After 24 hours of incubation, cell proliferation of NIH-3T3 cells was determined by measuring the incorporation of tritiated thymidine. The results (mean of 3 points) are given as the percentage of cell proliferation with respect to the control stimulated by HARP (100% cell proliferation). The IC50 concentrations (concentration leading to 50% inhibition of cell proliferation with respect to the control stimulated by HARP) are also given.
# The role played by nucleolin in the biological activity of the HARP molecule was studied in a series of experiments: the mitogenic activity of HARP, tested by measuring the incorporation of tritiated thymidine by NIH 3T3 cells, was evaluated in the presence or absence of a monoclonal antibody which specifically recognizes nucleolin.
# The effect of Nucant 01 on the proliferation of NIH-3T3 cells stimulated by HARP was compared with that of pentavalent compound HB-19. Quiescent NIH-3T3 cells were stimulated or not by 4 nM of HARP in the presence of HB19 or Nucant 01 at the concentrations indicated (0.1, 0.2, 0.4, 1, 2 and 4 μM). After 24 hours of incubation, cell proliferation of NIH-3T3 cells was determined by measuring the incorporation tritiated thymidine as described earlier.
# The effect of Nucant 2 and Nucant 3 on the proliferation NIH-3T3 cells triggered by HARP was compared to that of pentavalent compound HB-19. Quiescent NIH-3T3 cells were stimulated or not by 4 nM by HARP in the presence of HB19, Nucant 2, or Nucant 3 at the concentrations indicated (0.1, 0.25 and 0.5 μM). After 24 hours of incubation, cell proliferation of NIH-3T3 cells was determined by measuring the incorporation tritiated thymidine as described earlier.
# [2] = test system: NIH-3T3 cells; assay: Proliferation of NIH-3T3 cells stimulated by 5% foetal calf serum (tritiated thymidine incorporation); conditions: non-stimulated NIH-3T3 cells
# Protocol: FIG. 5. Effect of HB-19 on the proliferation of NIH-3T3 cells stimulated by 0.2 nM FGF-2 (A) or by 5% foetal calf serum (B). Quiescent NIH-3T3 cells are stimulated by FGF-2 or by 5% serum in the presence or not of HB19 at the concentrations indicated. After 24 hours of incubation, cell proliferation was determined by measuring the incorporation of tritiated thymidine. The results are given as a percentage with respect to the control stimulated by HARP (100%). MSD (threshold), (**p<0.01 and ***p<0.001).
# FIG. 14. Effect of NUCANT 3, 6 and 7 on the proliferation of NIH-3T3 cells stimulated by 5% FCS. NIH-3T3 cells are made quiescent by serum deprivation are stimulated by 5% FCS in the presence or not of various NUCANT 3, 6 and 7 concentrations ranging from 0.125 to 2 μM. After 24 hours of incubation, cell proliferation was determined by measuring the incorporation of tritiated thymidine. The results are given as a percentage with respect to the control cells stimulated by 5% FCS. ID50 is indicated by the dotted line.
# The effect of Nucant 3 on the proliferation of NIH-3T3 cells treated by 5% of FCS was also compared to that of compound HB-19. NIH-3T3 cells made quiescent by serum deprivation were stimulated by 5 FCS in the presence or not of different concentrations of NUCANT 3, 6 or 7 ranging from 0.125 to 2 μM. After 24 hours in incubation, cell proliferation is determined by measuring the incorporation of tritiated thymidine as described earlier.
# The effect of hexavalent compounds Nucant 6 and Nucant 7 on the proliferation of NIH-3T3 cells triggered by 5% FCS was compared with that of pentavalent compound HB-19. NIH-3T3 cells made quiescent by serum deprivation stimulated by 5% FCS in the presence of various concentrations of NUCANT 3, 6 or 7 ranging from 0.125 to 2 μM. After 24 hours of incubation, cell proliferation was determined by measuring the incorporation of tritiated thymidine as described above.
# [3] = target: surface nucleolin (Homo sapiens, UniProt P19338); assay: Activity of surface nucleolin in HeLa P4 cells; set-up: endogenous in cells; host or cells: HeLa P4 cells
# Protocol: FIG. 15. Nucant 6 and Nucant 7 show better anti-surface nucleolin activity than HB-19. ID50: concentration in μM which inhibits surface nucleolin by 50%. ID95: concentration in μM which inhibits surface nucleolin by 95%.
# The activity of surface nucleolin was tested in HeLa P4 cells using the technique we have described previously (13).
SMILES,IC50 ([1]; 24 h),effect on non-stimulated cells (toxicity) [2],"IC50 ([1]; 4 nM HARP, experiment of FIG. 13, read-out: IC50 (concentration leading to 50% inhibition of cell proliferation))",IC50 [3],"IC50 ([3]; HeLa P4 cells, read-out: ID50 value (Inhibitory Dose at 50%), surface nucleolin activity)","inhibition at 0.8 µM ([3]; M-HeLa, 0.8 μM, HeLa P4 cells)"
CC(=O)NC(C)(C)C(=O)N[C@@H](CCCCNC(=O)[C@H](CCCNC(=N)N)NC(=O)[C@@H]1CCCN1C[C@@H](N)CCCCN)C(=O)NC(C)(C)C(=O)NCC(=O)NC(C)(C)C(=O)N[C@@H](CCCCNC(=O)[C@H](CCCNC(=N)N)NC(=O)[C@@H]1CCCN1C[C@@H](N)CCCCN)C(=O)NC(C)(C)C(=O)NCC(=O)NC(C)(C)C(=O)N[C@@H](CCCCNC(=O)[C@H](CCCNC(=N)N)NC(=O)[C@@H]1CCCN1C[C@@H](N)CCCCN)C(=O)NC(C)(C)C(=O)NCC(=O)NC(C)(C)C(=O)N[C@@H](CCCCNC(=O)[C@H](CCCNC(=N)N)NC(=O)[C@@H]1CCCN1C[C@@H](N)CCCCN)C(=O)NC(C)(C)C(=O)NCC(=O)NC(C)(C)C(=O)N[C@@H](CCCCNC(=O)[C@H](CCCNC(=N)N)NC(=O)[C@@H]1CCCN1C[C@@H](N)CCCCN)C(=O)NC(C)(C)C(=O)NCC(N)=O [Nucant 2],1500 nM,–,–,–,–,–
CC(=O)N[C@@H](CCCCNC(=O)[C@H](CCCNC(=N)N)NC(=O)[C@@H]1CCCN1C[C@@H](N)CCCCN)C(=O)NC(C)(C)C(=O)NCC(=O)N[C@@H](CCCCNC(=O)[C@H](CCCNC(=N)N)NC(=O)[C@@H]1CCCN1C[C@@H](N)CCCCN)C(=O)NC(C)(C)C(=O)NCC(=O)N[C@@H](CCCCNC(=O)[C@H](CCCNC(=N)N)NC(=O)[C@@H]1CCCN1C[C@@H](N)CCCCN)C(=O)NC(C)(C)C(=O)NCC(=O)N[C@@H](CCCCNC(=O)[C@H](CCCNC(=N)N)NC(=O)[C@@H]1CCCN1C[C@@H](N)CCCCN)C(=O)NC(C)(C)C(=O)NCC(=O)N[C@@H](CCCCNC(=O)[C@H](CCCNC(=N)N)NC(=O)[C@@H]1CCCN1C[C@@H](N)CCCCN)C(=O)NC(C)(C)C(=O)NCC(N)=O [Nucant 3],–,No effect,1500 nM,100 to 200 nM,–,–
CC(=O)N[C@@H](CCCCNC(=O)[C@H](CCCNC(=N)N)NC(=O)[C@@H]1CCCN1C[C@@H](N)CCCCN)C(=O)NC(C)(C)C(=O)NCC(=O)N[C@@H](CCCCNC(=O)[C@H](CCCNC(=N)N)NC(=O)[C@@H]1CCCN1C[C@@H](N)CCCCN)C(=O)NC(C)(C)C(=O)NCC(=O)N[C@@H](CCCCNC(=O)[C@H](CCCNC(=N)N)NC(=O)[C@@H]1CCCN1C[C@@H](N)CCCCN)C(=O)NC(C)(C)C(=O)NCC(=O)N[C@@H](CCCCNC(=O)[C@H](CCCNC(=N)N)NC(=O)[C@@H]1CCCN1C[C@@H](N)CCCCN)C(=O)NC(C)(C)C(=O)NCC(=O)N[C@@H](CCCCNC(=O)[C@H](CCCNC(=N)N)NC(=O)[C@@H]1CCCN1C[C@@H](N)CCCCN)C(=O)NC(C)(C)C(=O)NCC(=O)N[C@@H](CCCCNC(=O)[C@H](CCCNC(=N)N)NC(=O)[C@@H]1CCCN1C[C@@H](N)CCCCN)C(=O)NC(C)(C)C(=O)NCC(N)=O [Nucant 6],–,No effect,–,–,< 100 nM,> 95%

# Where two headings read alike, the source gives them in different places.
